## Reported water solubility values for industrial, environmental and drug-like chemicals

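The OPERA project collected these measurements from public sources as training and test data for property models. A listed value is a point estimate from one report or more. How each value was measured is not recorded, so precision varies. The measured form (salt, isomer or mixture) is not always the one drawn. Some upstream entries may be estimates or bounds without being marked so.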

Solubility in water is on a log10 molar scale (set defined at 25 °C). "–" marks a cell with nothing listed here.

| compound | name | log S (log10 mol/L) |
|---|---|---|
| C[C@H]1CCCC=C[C@@H]2C[C@H](O)C[C@H]2[C@H](O)C=CC(=O)O1 | Brefeldin A | -5.67 |
| CCOC(=O)/C=C(C)/C=C/CC(C)CCCC(C)C (stereo partly drawn) | Hydroprene | -5.125 |
| Cl.Nc1cc(Cl)ccc1Cl | 2,5-Dichloroaniline--hydrogen chloride (1/1) | -2.075 |
| CCC(C)Br (configuration not stated) | 2-Bromobutane | -3.111 |
| O=C1CN=C(c2ccccc2)c2cc([N+](=O)[O-])ccc2N1 | Nitrazepam | -3.8 |
| Nc1ccc(Br)cc1 | 4-Bromoaniline | -2.39 |
| COP(=O)(OC)OC1=C(Cl)CC2C=CC12 (configuration not stated) | – | -2.057 |
| C[C@@]12CC[C@@H]3[C@H](CCC4CCCC[C@]43C)[C@H]1CCC2=O (some centres not stated) | – | -5.7 |
| O=[N+]([O-])c1ccc(NS(=O)(=O)c2ccc(Cl)c(C(F)(F)F)c2)c(Cl)c1 | Flusulfamide | -5.16 |
| O=C([O-])c1cc(Oc2ccc(C(F)(F)F)cc2Cl)ccc1[N+](=O)[O-].[Na+] | Acifluorfen-sodium | 0.21 |
| Clc1ccccc1C(Cl)(Cl)Cl | Benzene, 1-chloro-2-(trichloromethyl)- | -5.044 |
| CC(C)CC1(C)C(=O)NC(=O)NC1=O | 5-Methyl-5-(2-methylpropyl)pyrimidine-2,4,6(1H,3H,5H)-trione | -2.042 |
| C[N+]1(C)CCCCC1.[Cl-] | Mepiquat chloride | 0.524 |
| CN(C)CCCc1ccccc1 | 1-Dimethylamino-3-phenylpropane | -1.657 |
| COP(=O)(OC)SCCSC | Demephion-S | -2.86 |
| CN1CN(Cc2ccccc2)CN(Cc2cnc(Cl)s2)/C1=N/[N+](=O)[O-] | – | -3.539 |
| O=C(O)[C@@H](Br)[C@@H](Br)C(=O)O | meso-2,3-Dibromosuccinic acid | -1.131 |
| COP(=S)(NC(C)C)Oc1ccccc1C(=O)OC(C)C (configuration not stated) | – | -4.14 |
| COc1nc(C)nc(NC(=O)NS(=O)(=O)c2ccccc2Cl)n1 | Chlorsulfuron | -1.285 |
| O=c1cccc2n1C[C@@H]1CNC[C@H]2C1 | – | 0.36 |
| ClC(Cl)(Cl)C(Cl)(Cl)Cl | Hexachloroethane | -3.673 |
| CN(C)C(=O)Nc1cccc(OC(=O)NC(C)(C)C)c1 | Karbutilate | -2.931 |
| NC(=O)Nc1cccc(C(F)(F)F)c1 | [3-(Trifluoromethyl)phenyl]urea | -2.66 |
| CN=C(O)Oc1cccc(Cl)c1 | – | -2.29 |
| COc1ccc(Cc2nccc3cc(OC)c(OC)cc23)cc1OC | Papaverine | -3.87 |
| O=C(C(Br)Br)C(Br)(Br)Br | Pentabromoacetone | -6.656 |
| CCN[C@@H](C)Cc1cccc(C(F)(F)F)c1 | Dexfenfluramine | -4.032 |
| O=C(NC(=O)c1c(F)cccc1F)Nc1cc(Cl)c(OC(F)(F)C(F)F)c(Cl)c1 | Hexaflumuron | -7.231 |
| O=C(CCCN1CCC(n2c(=O)[nH]c3ccccc32)CC1)c1ccc(F)cc1 | Benperidol | -4.28 |
| C=CCc1ccc2c(c1)OCO2 | Safrole | -3.33 |
| CC[C@H]1CN2CCc3cc(OC)c(OC)cc3[C@@H]2C[C@@H]1C[C@H]1NCCc2cc(OC)c(OC)cc21 | Emetine | -2.689 |
| C[C@@]1(OO)NC(=O)N[C@H]1O (stereo in doubt) | (4S,5S)-4-Hydroperoxy-5-hydroxy-4-methylimidazolidin-2-one | -0.597 |
| CC(=O)C=Cc1ccccc1 | Methyl styryl ketone | -2.043 |

Excerpt, the opening 2 entries:

| compound | name | log S (log10 mol/L) |
|---|---|---|
| C[C@H]1CCCC=C[C@@H]2C[C@H](O)C[C@H]2[C@H](O)C=CC(=O)O1 | Brefeldin A | -5.67 |
| CCOC(=O)/C=C(C)/C=C/CC(C)CCCC(C)C (stereo partly drawn) | Hydroprene | -5.125 |

Data: OPERA 2.9 data sets, kmansouri/OPERA on GitHub.